## Binding of CDR-mutated scFvs to a peptide of the spike HR2 region

Reference: Li et al. 2023, doi:10.1038/s41467-023-39022-2. File: FLAb, binding data.

Binding partner: SARS-CoV-2 spike HR2 peptide, sequence PDVDLGDISGINAS.

Parent scFv Ab-14: VH joined to VL by a (GGGGS)3 linker. Changes lie in the light chain CDRs alone.
VH: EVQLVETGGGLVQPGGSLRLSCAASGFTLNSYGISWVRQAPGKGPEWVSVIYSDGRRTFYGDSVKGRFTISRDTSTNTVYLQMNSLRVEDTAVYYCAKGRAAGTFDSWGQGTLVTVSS
VL: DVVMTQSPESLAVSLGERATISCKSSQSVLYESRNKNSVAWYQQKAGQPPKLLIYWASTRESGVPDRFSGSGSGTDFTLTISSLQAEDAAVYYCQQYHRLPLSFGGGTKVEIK

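The parent was found by panning a naive human phage display library on the peptide. Designed CDR sequences, proposed from the first random library and measured here. Group labels follow the data file (Ctrl: baseline library sampled from a position-specific scoring matrix, with some repeated check sequences; En: ensemble of fine-tuned language models; GP: Gaussian process model; HC: hill climbing; Gen: genetic algorithm; Gibbs: Gibbs sampling; a sequence that several methods proposed may carry one label only). The assay is AlphaSeq: two haploid yeast populations carry antibody and antigen on their surface. Pairs that bind mate more often; barcode pairs of the diploids are counted by sequencing. A regression on co-assayed BCL2-family reference pairs converts the normalised counts of each replicate to an apparent Kd. Mating was done six times.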

Variants are written as CDR1, CDR2 and CDR3 of the light chain (limits as in the source). Parent: KSSQSVLYESRNKNSVA, WASTRES, QQYHRLPLS.
Variants here have more than six changes.
Kd is apparent (estimated from mating counts) and averaged on the log scale over replicates with a signal. Smaller is tighter.
An entry "nd" has no value in the source: the pair was not observed among the diploids in any replicate. This suggests poor binding but is not conclusive.
Of ten entries with the parent sequence, four were seen in most replicates (averages 2.2 nM to 240 nM), three in one and three in none, so single entries are noisy.
Nonspecific signal, from three strains lacking the peptide, appeared in 4% of pairings of all light chain designs, centred on 430 nM (5% of these signals below 38 nM); values are not corrected for it.
The range of this assay differs from that of the first round, and the authors advise against merging the two.
The authors averaged sequences with at least three values out of six and counted those with two or fewer as poor binders.

Variant KVSEFMRGLMSRKDSIA | DNVTRQN | QQYDRLPLS [En_Gen] showed 12 nM (6 of 6 replicates). With KAQAGDGYESRNKNSVA | EGSKRES | QQYHRLPLS [GP_Gibbs] the result was 1.0 nM (6 of 6 replicates). For KLQWSVLLQSRNKNSVA | QASTRMM | QQYHRLPLS [GP_Gibbs], the assay gave 2.6 nM (6 of 6 replicates). With KLSQQMLYESRNKNNVA | AASQRED | QQYHRLPLS [GP_Gibbs] the result was 360 pM (6 of 6 replicates). Variant KVSPSHLYWSRNKNQVA | QASTRET | QQYHRLPLS [GP_Gibbs] showed 1.4 nM (6 of 6 replicates). With SISGFMKSLSAHTNSVA | DMTNRED | QQYDRLPLS [En_Gen] the result was 7.4 nM (6 of 6 replicates). For KLSQSVLYESAASNAVA | NAMQRMD | QQYHRLPLS [GP_Gibbs], the assay gave 1.1 nM (6 of 6 replicates). For KLSATYRYESQNSNSIA | EMSTRES | QCYHRLPLS [En_HC], the assay gave 7.3 nM (6 of 6 replicates). With KLSYSVEYEDRNKNSVA | QASQRNS | QQYHRLPLS [GP_Gibbs] the result was 4.4 nM (6 of 6 replicates).

With KLPFSCEYESRNKNSVA | MASTRCV | QQYHRLPLS [GP_Gibbs] the result was 2.3 nM (6 of 6 replicates). Variant KVFPSGLGLSRNKNSVA | DASTRES | QQYHRLPLS [GP_Gibbs] showed 950 pM (6 of 6 replicates). Variant IVSQLMLWGWHAKNSIA | EAQTRIN | QQYDRLPLF [En_Gen] showed 500 nM (1 of 6 replicates). With HLNKQAWDFNQTWNAVA | AHSMRAV | QQYYRLPLT [En_Gibbs] the result was 59 nM (6 of 6 replicates). Variant NLGGEDFNDTYGMKAVA | DVSEVGD | QHYSRLPLS [En_Gibbs] gave 18 nM (6 of 6 replicates). With HLSESVKMESRNTNSVA | DNSTRGS | QQYDRLPLS [En_HC] the result was 76 nM (6 of 6 replicates). With KLYQMTGIESHNKNSLA | DANRRES | QQYHRLPLS [En_HC] the result was 1.3 nM (6 of 6 replicates). Variant KVYGAINFQSSAKSNIA | EESMRTK | QQYARLPLS [En_Gen] showed 1.4 nM (6 of 6 replicates). With NVGGEDPGQWYMHDSIA | GSSLRAE | QQYWRLPLL [En_Gibbs] the result was 3.0 nM (6 of 6 replicates).

For MISQLFNMGQFAINSVA | QASQRNA | QQYDRLPLI [En_Gen], the assay gave 330 nM (6 of 6 replicates). With KMKQSMEGNPKNWNSVA | DVDSTKE | QQYARLPLF [En_Gibbs] the result was 14 nM (6 of 6 replicates). Variant KLSVSMVLESFHKNNVA | ENSTREE | QHYHRLPLS [En_HC] gave nd (0 of 6 replicates). Variant KIDGQRSYDAGRERAIA | DVTIRFR | QQYARLPLV [En_Gibbs] gave 79 nM (5 of 6 replicates). With YVSIDLAEGWNQQEAVA | GVSYKEK | QQYYKLPLS [En_Gibbs] the result was nd (0 of 6 replicates). Variant KLSMLWLMLSRNHNSVA | SASTRES | QQYHRLPLS [GP_Gibbs] gave 69 nM (5 of 6 replicates). Variant QLLMATMQGEYNRNSVA | HAETRED | QSYHRLPLS [En_HC] showed 6.5 nM (6 of 6 replicates). Variant EIEILGEEVTQHYSNVA | EQHVTDM | QQYFRLPLS [En_Gibbs] gave 7.1 nM (1 of 6 replicates). Variant KVSMFMRGLTQRKDSIA | DNNTRSN | QQYDRLPLS [En_Gen] gave 1.2 nM (6 of 6 replicates).

Variant SLIPFENQIMKGTNNIA | NTSVRAS | QQYMRLPFV [En_Gibbs] gave 1.7 nM (6 of 6 replicates). Variant MISQILNMGQFAINSVA | QASIRNA | QQYDRLPLA [En_Gen] gave 8.5 nM (5 of 6 replicates). For TLTQVQGMESHNKNSVA | DLSVRGS | QQYHRLPLS [En_HC], the assay gave 2.0 nM (6 of 6 replicates). With SMYPFDVAIGKGTQNVA | HVSVRAS | QQYDRLPLV [En_Gibbs] the result was 9.3 nM (6 of 6 replicates). With HVSMLTLGGLRNRNSVA | QMTTREN | QQYDRLPLI [En_Gen] the result was 4.2 nM (6 of 6 replicates). With RLLYLDLAQTGKLNSVA | DATITQQ | QQYHQLPLM [En_Gibbs] the result was 3.5 nM (6 of 6 replicates). For KISQSYLYEDRAKNSVA | NASTRLW | QQYHRLPLS [GP_Gibbs], the assay gave 1.8 nM (6 of 6 replicates). For IVSQLMLWGWHAKNSIA | EAQTRLN | QQYDRLPLE [En_Gen], the assay gave 690 pM (6 of 6 replicates). Variant KSSQSDLESVRNKNSVA | NASKREL | QQYHRLPLS [Ctrl] gave 2.3 nM (6 of 6 replicates).

With KISSMTLYESVNKNNIA | EMSTRPS | QSYHRLPLS [En_HC] the result was 19 nM (6 of 6 replicates). With SLHMMPMVGYALNANVA | NASQLFS | QHYFRLPLT [En_Gibbs] the result was 25 nM (6 of 6 replicates). For ALGDVTRMESNKVNSIA | DMSNRED | QQYHRLPLS [En_HC], the assay gave 720 pM (6 of 6 replicates). For KQSQQDDYQSRNKNQVA | DASTRYS | QQYHRLPLS [GP_Gibbs], the assay gave 1.2 nM (6 of 6 replicates).

A selection of 3 entries from above:

{"CDR-L1": "KIDGQRSYDAGRERAIA", "CDR-L2": "DVTIRFR", "CDR-L3": "QQYARLPLV", "group": "En_Gibbs", "Kd": "79 nM", "detected": "5 of 6"}
{"CDR-L1": "KQSQQDDYQSRNKNQVA", "CDR-L2": "DASTRYS", "CDR-L3": "QQYHRLPLS", "group": "GP_Gibbs", "Kd": "1.2 nM", "detected": "6 of 6"}
{"CDR-L1": "KLYQMTGIESHNKNSLA", "CDR-L2": "DANRRES", "CDR-L3": "QQYHRLPLS", "group": "En_HC", "Kd": "1.3 nM", "detected": "6 of 6"}